Values joined by “and” are separate entries in the source; they are usually repeats but may differ in a detail not shown here. Identical values can stand only once.
Molecular target: T-cell surface glycoprotein CD4 [Homo sapiens] (Homo sapiens) (UniProt P01730)
Test: cell-based or functional assay

## CART4 anti-CD4 chimeric antigen receptor (scFv of monoclonal antibody Hu5A8, CD8a hinge/transmembrane domain, CD28, 4-1BB and CD3 zeta signalling domains), expressed on transduced human T cells
  ablation of CD4+ malignant cells in ATLL patient PBMCs, 4-hour co-culture: 80%
  lysis of CD4+ cells in autologous PBMCs, E:T 3:1, 4-hour co-culture: 94%
  reduction of malignant T cells in primary CTCL samples, 4-hour co-culture: 60% and 80%

Source: patent US20240207313A1
